# Source: patent publication US20080200433A1, “Molecular Chaperone Function Regulator” (priority 2004, published 2008)
# Key:
# HSP70 = assay: Time-dependent HSP70 induction in A-431 cells (Western blot); type: cell-based, human; settings: 10 μM, vs DMSO control (FIG. 1)
# Method: DMSO (0.1%) was added to the control. After the addition, the cells were collected 6, 9, 12 and 24 hr later and cell extracts were prepared. Expression of HSP70 protein in the cell extracts was examined by Western blot using an HSP70 specific antibody. T/C (%) was determined using the amount of chemical luminescence on a PVDF film due to an HRP-labeled secondary antibody as the HSP70 expression amount and HSP70 expression amount of the cells in the control well as 100.
# [1] = system: client proteins EGFR, HER2, ERα, AR, AKT and CDK4 of HSP90 chaperone; assay: Suppressive action on HSP90 client protein expression in MCF-7 cells (Western blot); type: cell-based, human; settings: 10 μM, 24 hr, vs DMSO control (FIG. 3)
# Method: After the addition of the compound, the cells were collected and divided in two 24 hr later. Cell extracts were prepared from half the cells, and cytoplasmic fraction and nuclear fraction were prepared from the remaining half. […] Expression of client in each tumor cell extract and nuclear fraction was examined by Western blot using an antibody specific to each client.
structure (smiles),measurement,setting,value
"COc1cc2ncnc(Nc3ccc(F)c(Cl)c3)c2cc1OCCCN1CCOCC1 [gefinitib, 4-(3′-Chloro-4′-fluoroanilino)-7-methoxy-6-(3-morpholinopropoxy)quinazoline, reference compound]",expression of HSP70,HSP70; 6 hr to 12 hr after treatment,did not show a clear increase
same,expression of HSP70,HSP70; 24 hr after treatment,decreased
same,expression of HSP90 client proteins,[1],a clear decrease of client was not observed
